{"sequences": {"note": "Amino acid sequences for entries named in this document (tags omitted). Residues count along the entry.", "UniProt P34969, 1-445 isoform P34969-2": "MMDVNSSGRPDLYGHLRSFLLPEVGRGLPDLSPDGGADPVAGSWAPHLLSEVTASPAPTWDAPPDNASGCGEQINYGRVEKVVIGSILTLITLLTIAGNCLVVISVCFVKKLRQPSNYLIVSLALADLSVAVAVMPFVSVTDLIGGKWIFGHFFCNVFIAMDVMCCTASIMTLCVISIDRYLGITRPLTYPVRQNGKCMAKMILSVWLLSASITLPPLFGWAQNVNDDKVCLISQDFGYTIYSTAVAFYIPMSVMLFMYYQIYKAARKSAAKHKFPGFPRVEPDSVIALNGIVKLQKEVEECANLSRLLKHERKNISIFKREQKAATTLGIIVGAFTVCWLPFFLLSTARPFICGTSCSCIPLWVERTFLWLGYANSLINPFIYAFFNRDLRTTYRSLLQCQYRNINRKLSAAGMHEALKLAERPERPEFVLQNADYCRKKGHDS"}, "source": "patent US6432655B1", "about": "“Method of obtaining compositions” (Synaptic Pharmaceutical Corporation, priority 1992, dated 2002)", "key": {"[1]": {"target": "T1, human 5-HT4B receptor (clone hp78a) (Homo sapiens, UniProt P34969)", "T1 construct": "The entire coding region of the human 5-HT4B receptor (1338 bp); expressed in transfected cells; host or cells: Cos-7 (monkey kidney), transient, plasmid hp78a/EXJ (pcEXV-5HT4B)", "assay": "[3H]5-HT radioligand binding to membranes of Cos-7 cells transiently expressing clone hp78a", "conditions": "read-out: Ki (apparent dissociation constants for clone hp78a)"}, "[2]": {"target": "T2, human 5-HT4B receptor (Homo sapiens, UniProt P34969)", "T2 construct": "The entire coding region of the human 5-HT4B receptor (1338 bp); expressed in transfected cells", "assay": "cAMP formation in intact, transiently transfected Cos-7 cells", "assay_type": "cell-based"}, "[3]": {"target": "T2, human 5-HT4B receptor", "assay_type": "cell-based"}, "[4]": {"test_system": "5-HT receptor present in glial membranes", "conditions": "Fillion et al., 1980; property shared with hp78a; cited from earlier work"}}, "data": [{"molecule": "CCCN(CCC)C1CCc2cccc(O)c2C1", "note": "(stereo not shown)", "values": [{"measurement": "Ki", "setting": "[1]", "value": "0.466 ± 0.046", "unit": "µM"}, {"measurement": "FOLD cAMP STIMULATION", "setting": "[2]; 1 μM drug, relative to basal levels", "value": "1.7 ± 0.4"}, {"measurement": "response relative to the maximum response elicited by 5-HT", "setting": "[3]", "value": "approximately half"}, {"measurement": "EC50", "setting": "[3]; cAMP response, mean ± S.E.M., at least 3 experiments", "value": 17.2, "unit": "µM"}]}, {"molecule": "NCCc1c[nH]c2ccc(C(N)=O)cc12", "note": "[5-CT, 5-Carboxamidotryptamine]", "values": [{"measurement": "increase in cAMP release over basal levels", "setting": "[2]", "value": 20, "unit": "fold"}, {"measurement": "maximum stimulation (Emax value)", "setting": "[2]", "value": "2029±47", "unit": "% basal cAMP release"}]}, {"molecule": "CSc1ccc2c(c1)C(N1CCN(C)CC1)Cc1ccccc1S2", "note": "(stereo not shown) [Methiothepin]", "values": [{"measurement": "antagonism", "setting": "[4]", "value": "Potent antagonism"}]}]}
